Values quoted from earlier work, collected in patent US20090069418A1, “Compositions and Methods for the Treatment of Disorders Associated with Aberrant Vasodilation” (priority 2007, published 2009).

By UniProt entry, the sequences of proteins in these tests, tags left out.
UniProt P34913, whole entry, species assumed: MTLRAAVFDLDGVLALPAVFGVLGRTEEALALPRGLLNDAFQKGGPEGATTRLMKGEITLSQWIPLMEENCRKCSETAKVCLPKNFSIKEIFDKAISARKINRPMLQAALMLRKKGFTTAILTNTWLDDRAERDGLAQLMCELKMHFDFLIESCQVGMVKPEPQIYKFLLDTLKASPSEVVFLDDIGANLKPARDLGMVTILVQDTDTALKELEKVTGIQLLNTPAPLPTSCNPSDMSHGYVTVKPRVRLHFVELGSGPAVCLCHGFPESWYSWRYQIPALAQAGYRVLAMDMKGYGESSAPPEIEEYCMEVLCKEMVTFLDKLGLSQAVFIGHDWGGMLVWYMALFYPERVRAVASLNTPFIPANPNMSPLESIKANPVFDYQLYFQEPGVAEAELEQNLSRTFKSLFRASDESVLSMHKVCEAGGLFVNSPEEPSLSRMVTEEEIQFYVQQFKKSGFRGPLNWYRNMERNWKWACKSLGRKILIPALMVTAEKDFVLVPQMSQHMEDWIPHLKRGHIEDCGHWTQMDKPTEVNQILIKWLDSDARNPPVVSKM

Target: sEH (Homo sapiens, UniProt P34913)
Conditions: previously shown (Kim et al. 2007; Morisseau et al. 2002); cited from earlier work

Compound: CCCCOC(=O)CCCCCCCCCCCNC(=O)NC12CC3CC(CC(C3)C1)C2 [AUDA-BE, 12-(3-adamantane-1-yl-ureido)-dodecanoic acid butyl ester]
- IC50: low nanomolar range
